Reference: ChEMBL document CHEMBL3832547, “Goodman and Gilman Ed. 12 | The Pharmaceutical Basis of Therapeutics| Table AII-I: Pharmacokinetic Data” (2011)

Test: Pharmacokinetic parameters for Letrozole evaluated following single oral administration of Letrozole tablets
Format: ADME, organism-based
Parameters: dose 2.5 mg, route oral
Details: human, in vivo, 2.5 mg, dosed compound id 15, dosed compound name LETROZOLE, gender female, regimen Single dose, tissue Plasma

With `N#Cc1ccc(C(c2ccc(C#N)cc2)n2cncn2)cc1` [LETROZOLE] the half-life was 2700 min.
